Data: patent US11642336B2, “5-HT2A agonists for use in treatment of depression” (priority 2019, dated 2023)

Sequences of proteins named here, by UniProt entry; tags and fusion partners are left off. Residues count along the entry.
UniProt P28223, whole entry: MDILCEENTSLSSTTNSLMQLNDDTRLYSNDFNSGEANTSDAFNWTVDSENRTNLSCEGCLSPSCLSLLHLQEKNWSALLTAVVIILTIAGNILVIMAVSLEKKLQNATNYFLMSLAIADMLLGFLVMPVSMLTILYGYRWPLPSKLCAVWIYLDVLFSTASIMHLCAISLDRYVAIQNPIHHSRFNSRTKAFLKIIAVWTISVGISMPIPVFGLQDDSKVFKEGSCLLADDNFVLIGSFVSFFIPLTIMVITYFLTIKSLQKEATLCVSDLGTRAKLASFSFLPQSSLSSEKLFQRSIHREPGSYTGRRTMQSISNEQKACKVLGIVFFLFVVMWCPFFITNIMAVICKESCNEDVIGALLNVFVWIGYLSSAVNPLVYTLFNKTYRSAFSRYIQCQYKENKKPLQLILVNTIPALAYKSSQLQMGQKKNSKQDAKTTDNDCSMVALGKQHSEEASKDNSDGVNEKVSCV
UniProt P41595, whole entry: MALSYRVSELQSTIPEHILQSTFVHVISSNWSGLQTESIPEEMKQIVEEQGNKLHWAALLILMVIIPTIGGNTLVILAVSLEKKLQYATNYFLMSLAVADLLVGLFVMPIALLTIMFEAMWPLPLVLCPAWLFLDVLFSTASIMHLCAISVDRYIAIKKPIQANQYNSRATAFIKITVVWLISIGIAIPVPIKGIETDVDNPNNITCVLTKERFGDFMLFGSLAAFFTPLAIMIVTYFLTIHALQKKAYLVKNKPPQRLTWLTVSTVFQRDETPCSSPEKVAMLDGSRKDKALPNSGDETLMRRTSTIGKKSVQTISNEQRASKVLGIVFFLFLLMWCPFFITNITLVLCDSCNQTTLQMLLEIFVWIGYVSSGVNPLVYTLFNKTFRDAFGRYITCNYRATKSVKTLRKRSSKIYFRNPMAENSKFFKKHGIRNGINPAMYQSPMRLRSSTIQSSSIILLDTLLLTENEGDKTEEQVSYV
UniProt P28335, 33-458 limits assumed: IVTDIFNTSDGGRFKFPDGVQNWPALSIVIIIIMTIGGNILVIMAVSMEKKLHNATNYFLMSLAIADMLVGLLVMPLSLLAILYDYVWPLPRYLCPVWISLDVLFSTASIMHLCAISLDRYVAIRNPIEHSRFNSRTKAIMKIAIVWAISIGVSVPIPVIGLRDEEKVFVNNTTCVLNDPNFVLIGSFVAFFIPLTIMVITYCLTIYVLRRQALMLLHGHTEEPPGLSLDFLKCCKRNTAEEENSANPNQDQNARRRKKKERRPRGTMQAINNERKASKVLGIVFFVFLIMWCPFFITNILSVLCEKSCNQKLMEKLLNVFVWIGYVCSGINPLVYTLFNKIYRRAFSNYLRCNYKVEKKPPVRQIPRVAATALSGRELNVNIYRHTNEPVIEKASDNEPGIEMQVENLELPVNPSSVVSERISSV

How the values were obtained:
Format in all cases: cell-based
human 5-HT2A [1] = target: T1, human 5-HT2A (Homo sapiens (Human), UniProt P28223); test: IP assay (Eurofins, IP1 HTRF), HEK293 cells; settings: for 5-HT2A Rmax: % of Rmax of 5-HT, tested form: HCl; for EC50: read-out: 5-HT2A EC50, duplicate determinations, tested form: HCl
5-HT2B = 5-HT2B (Homo sapiens (Human), UniProt P41595); test: IP assay (Eurofins, IP1 HTRF), HEK293 cells; settings: for Selectivity EC50 5-HT2B/EC50 5-HT2A: bounds are conservative estimates; for EC50: read-out: 5-HT2B EC50, duplicate determinations, tested form: HCl;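 as to all read-outs here: agonist effect read as cellular IP1 production by HTRF using a europium cryptate anti-IP1 antibody donor and D2-labeled IP1 acceptor, eight compound concentrations in each cell line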
5-HT2C = 5-HT2C (Homo sapiens (Human), UniProt P28335); test: Ca2+/Fluo-4 assay, stable h5-HT2C-HEK293 cell line; settings: tested form: HCl;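 also: Agonist-induced intracellular Ca2+ rise read by Fluo-4 fluorescence in HEK293 cells stably expressing the human 5-HT2C receptor, each compound run in duplicate on three or more occasions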
human 5-HT2A [2] = target: T1, human 5-HT2A; test: Ca2+/Fluo-4 assay, stable h5-HT2A-HEK293 cell line; settings: tested form: HCl; for 5-HT2A Rmax ± S.E.M: % of the Rmax of 5-HT; for Selectivity EC50 5-HT2C/EC50 5-HT2A: Ca2+/Fluo-4 assay, bounds are conservative estimates; for 5-HT2A [pEC50 ± S.E.M.] / EC50: agonist potency, n = 3-4; for EC50: read-out: 5-HT2A EC50

With `COc1cc(C(F)(F)F)c(SC)cc1[C@@H]1CCCNC1` the “5-HT2A Rmax” value (human 5-HT2A [1]) was 71%, the EC50 (human 5-HT2A [1]) was 0.014 µM and the “5-HT2B Rmax” value (5-HT2B; % of Rmax of 5-HT, tested form: HCl) was 63%. The Selectivity EC50 5-HT2B/EC50 5-HT2A (5-HT2B; tested form: HCl) was 6.6, the EC50 (5-HT2B) was 0.092 µM and the “5-HT2C Rmax ± S.E.M” value (5-HT2C; % of the Rmax of 5-HT) was 22 ± 4%. For the same molecule, the “5-HT2C [pEC50 ± S.E.M.]” value (5-HT2C; agonist potency, n = 3-4) was “[6.78 ± 0.13]”, the EC50 (5-HT2C; read-out: 5-HT2C EC50, agonist potency, n = 3-4) was 0.17 µM and the “5-HT2A Rmax ± S.E.M” value (human 5-HT2A [2]) was 82 ± 3%. For the same molecule, the Selectivity EC50 5-HT2C/EC50 5-HT2A (human 5-HT2A [2]) was 18, the “5-HT2A [pEC50 ± S.E.M.]” value (human 5-HT2A [2]) was “[8.04 ± 0.02]” and the EC50 (human 5-HT2A [2]) was 0.0091 µM.

In the case of `CCOc1cc([C@@H]2CCCNC2)c(OCC)cc1CC`, the “5-HT2A Rmax” value (human 5-HT2A [1]) is reported as 62%, the EC50 (human 5-HT2A [1]) is reported as 0.72 µM and the Selectivity EC50 5-HT2B/EC50 5-HT2A (5-HT2B; tested form: HCl) is reported as greater than 100. The EC50 (5-HT2B) was greater than 100 µM, the “5-HT2B agonist activity (n.a.)” value (5-HT2B; up to 100 μM (Table 3), tested form: HCl) was “n.a. [@ 100 μM]^a > (no agonist activity: the compound did not evoke significant responses at concentrations up to 100 μM)” and the “5-HT2C agonist activity (n.a./w.a.)” value (5-HT2C; tested up to 50 μM) was “w.a”. The “5-HT2A Rmax ± S.E.M” value (human 5-HT2A [2]) was 44 ± 5%, the Selectivity EC50 5-HT2C/EC50 5-HT2A (human 5-HT2A [2]) was greater than 100 and the “5-HT2A [pEC50 ± S.E.M.]” value (human 5-HT2A [2]) was “[6.42 ± 0.09]”. The EC50 (human 5-HT2A [2]) was 0.38 µM.
